{
  "source": "patent US12582644B2",
  "about": "“O-GlcNAc transferase inhibitors and uses thereof” (President and Fellows of Harvard College, priority 2018, dated 2026)",
  "origin": "cited, not measured here",
  "biological_target": "T1, OGT (Homo sapiens, UniProt O15294)",
  "T1 sequence (O15294 1-1046)": "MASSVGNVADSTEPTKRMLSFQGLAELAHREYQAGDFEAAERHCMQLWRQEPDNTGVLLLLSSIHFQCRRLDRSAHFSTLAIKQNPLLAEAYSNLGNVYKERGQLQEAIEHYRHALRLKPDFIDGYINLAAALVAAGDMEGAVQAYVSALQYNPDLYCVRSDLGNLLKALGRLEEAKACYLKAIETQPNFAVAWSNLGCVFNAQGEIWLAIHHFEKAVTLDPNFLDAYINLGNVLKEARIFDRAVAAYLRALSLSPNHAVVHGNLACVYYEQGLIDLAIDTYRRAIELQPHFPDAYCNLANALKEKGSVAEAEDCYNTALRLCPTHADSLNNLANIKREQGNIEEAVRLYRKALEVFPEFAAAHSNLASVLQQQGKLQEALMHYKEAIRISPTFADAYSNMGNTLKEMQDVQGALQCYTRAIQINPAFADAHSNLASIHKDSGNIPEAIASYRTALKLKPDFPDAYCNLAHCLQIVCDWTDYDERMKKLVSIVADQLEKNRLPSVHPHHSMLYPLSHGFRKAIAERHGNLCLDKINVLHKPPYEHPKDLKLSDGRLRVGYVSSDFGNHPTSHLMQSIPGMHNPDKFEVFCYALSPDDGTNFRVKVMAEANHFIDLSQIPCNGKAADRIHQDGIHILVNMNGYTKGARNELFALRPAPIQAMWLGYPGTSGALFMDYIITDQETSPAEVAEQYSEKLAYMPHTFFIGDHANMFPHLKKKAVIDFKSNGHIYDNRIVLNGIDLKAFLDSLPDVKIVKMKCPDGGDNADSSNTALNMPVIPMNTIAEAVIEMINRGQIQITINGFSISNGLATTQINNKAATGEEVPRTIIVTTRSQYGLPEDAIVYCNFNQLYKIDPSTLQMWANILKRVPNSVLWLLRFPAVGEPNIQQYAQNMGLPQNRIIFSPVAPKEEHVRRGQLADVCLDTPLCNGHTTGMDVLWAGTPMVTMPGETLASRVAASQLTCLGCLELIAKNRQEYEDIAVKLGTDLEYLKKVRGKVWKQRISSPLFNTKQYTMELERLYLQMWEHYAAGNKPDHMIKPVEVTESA",
  "details": "SPR, value in parentheses; read-out: Binding affinity (Kd ± s.d.) determined by SPR; cited from earlier work",
  "data": [
    {"smiles": "O=c1ccn([C@@H]2O[C@H](COP(=O)(O)OP(=O)(O)O)[C@@H](O)[C@H]2O)c(=O)[nH]1", "note": "[UDP, reference compound]", "values": [
      {"measurement": "Kd", "result": 540, "unit": "nM"}
    ]}
  ]
}
